Measurements: ChEMBL document CHEMBL3045655, “Use of structure-based virtual screening in the investigation of novel human sialidase inhibitors” (Med Chem Res, 2010)

Molecular target: T1, Sialidase-4 (Homo sapiens, UniProt Q8WWR8)
T1 sequence (Q8WWR8 whole entry): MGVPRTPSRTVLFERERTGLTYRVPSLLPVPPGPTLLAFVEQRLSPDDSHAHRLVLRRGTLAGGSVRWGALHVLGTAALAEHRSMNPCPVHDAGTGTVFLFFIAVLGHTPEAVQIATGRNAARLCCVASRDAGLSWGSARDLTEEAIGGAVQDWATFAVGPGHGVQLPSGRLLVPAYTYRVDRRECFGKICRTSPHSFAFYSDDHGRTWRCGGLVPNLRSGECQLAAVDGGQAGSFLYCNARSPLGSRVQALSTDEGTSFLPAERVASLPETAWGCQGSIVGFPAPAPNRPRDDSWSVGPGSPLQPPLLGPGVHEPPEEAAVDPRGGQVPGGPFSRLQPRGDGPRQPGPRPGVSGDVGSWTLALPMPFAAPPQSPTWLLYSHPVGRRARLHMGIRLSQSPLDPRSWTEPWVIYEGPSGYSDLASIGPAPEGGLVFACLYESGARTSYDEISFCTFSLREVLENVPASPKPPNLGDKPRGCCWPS
Assay: Inhibition of Homo sapiens (human) NEU4 expressed in HEK293 cells using 4MU-NeuAc as substrate after 10 to 30 min by fluorometric analysis
Assay type: cell-based

IC50: 70 µM
SMILES: CC(=O)N[C@H]1[C@H]([C@@H](O)[C@@H](O)CO)OC(C(=O)O)=C[C@@H]1O
